Test system: SW1573 cells
Assay: SW1573 tumor bearing mice, single agents and combination
Type: in vivo, nude/nude mice
Conditions: Study Day 11, p.o. daily, Compound 478 100 mg/kg, palbociclib 130 mg/kg, 7 mice averaged
Protocol: Immunocompromised nude/nude mice were inoculated in the right hind flank with cells or patient derived tumor samples harboring a KRas G12C mutation. When tumor volumes reached between 200-400 mm^3 in size, the mice were divided into four groups of 5-12 mice each. The first group was administered vehicle only. […] The fourth group was administered the single agent dose of the KRas G12C inhibitor in combination with the single agent dose of the CDK 4/6 inhibitor. […] Tumor volumes were measured using a caliper every two-three days and tumor volumes are calculated by the formula: […].
For example, 28 nude/nude mice were inoculated in the right hind limb with 5×10^6 SW1573 cells.

C=C(F)C(=O)N1CCN(c2nc(OC[C@@H]3CCCN3C)nc3c2CCN(c2cccc4cccc(Cl)c24)C3)C[C@@H]1CC#N [Compound 478]
Average Tumor Volume: 444 mm^3
